For the assay, the system named is bacteria (ATCC reference strains). Put plainly: Antibacterial activity, MIC by broth micro-dilution (CLSI).
The mark [1] stands for this setting: Acinetobacter baumannii, read-out: Antibacterial Activity (MIC), E = A. baumannii B1931.
Where [2] appears, read: Enterobacter cloacae, read-out: Antibacterial Activity (MIC), B = Enterobacter cloacae B1966.
[3] abbreviates: Escherichia coli, ATCC25922, read-out: Antibacterial Activity (MIC), A = E. coli ATCC 25922.
Setting [4] is: Haemophilus influenzae, ATCC49247, read-out: Antibacterial Activity (MIC), F = H. influenzae ATCC 49247.
[5] abbreviates: Klebsiella pneumoniae, ATCC700603, read-out: Antibacterial Activity (MIC), C = K. pneumoniae ATCC 700603.
[6] abbreviates: Pseudomonas aeruginosa, ATCC27853, read-out: Antibacterial Activity (MIC), D = P. aeruginosa ATCC 27853.

Converted amounts (≈) assume the structure as drawn. Like-named read-outs stand apart in the source and are kept apart here.

MIC data for 3 molecules are collected here from US12247004B2, “2-amino-N-(amino-oxo-aryl-lambda6-sulfanylidene)acetamide compounds and their therapeutic use” (Oxford Drug Design Limited, priority 2019, dated 2025).

With `CC(C)C[C@H](N)C(=O)N=[S@@](N)(=O)c1cccc(F)c1.Cl` [ANASIA-011-2], the MIC runs as follows: under setting [1], greater than 64 µg/mL; under setting [2], greater than 64 µg/mL; under setting [3], 64 µg/mL; under setting [4], greater than 64 µg/mL; under setting [5], greater than 64 µg/mL; under setting [6], greater than 64 µg/mL.

Turning to `CC(C)C[C@H](N)C(=O)N=S(N)(=O)c1cccc(F)c1` (stereo partly shown) [ANASIA-011], the MIC stood at 16 µg/mL (≈ 55.7 µM) under setting [1]; 8 µg/mL (≈ 27.8 µM) under setting [2]; 1 µg/mL (≈ 3.48 µM) under setting [3]; 4 µg/mL (≈ 13.9 µM) under setting [4]; 8 µg/mL (≈ 27.8 µM) under setting [5]; 32 µg/mL (≈ 111 µM) under setting [6].

Regarding `CC(C)C[C@H](N)C(=O)N=[S@](N)(=O)c1cccc(F)c1.Cl` [ANASIA-011-1], the MIC reads like this: under setting [1], 16 µg/mL; under setting [2], 4 µg/mL; under setting [3], 0.707 µg/mL; (Escherichia coli, BAA2469, read-out: Antibacterial Activity (MIC), G = E. coli BAA-2469) 2.52 µg/mL; under setting [4], 2 µg/mL; under setting [5], 8 µg/mL. Further, under setting [6], the MIC came to 64 µg/mL.
